# Laboratory results published in ChEMBL document CHEMBL3244133, “Synthesis and biological activities of some uronic acids, uronates, uronamides, and urononitriles of pyrimidine nucleosides” (J Med Chem, 1978).
# Assay: Dissociation constant, pKa of the compound
# Type: physicochemical
compound,measurement,value
O=c1[nH]c(=O)n([C@H]2C[C@H](O)[C@@H](CO)O2)cc1F [FLOXURIDINE],pKa,7.7
